Measured values as given in US8852618B2, “Insecticidal mixture containing gamma-cyhalothrin” (Syngenta Limited, priority 2001, dated 2014).

Legend:
Spodoptera littoralis = assay: Sprayed cotton leaf test, mortality of 1st instar larvae after 3 days
Procedure: (§1) For Heliothis and Spodoptera testing cotton leaves were sprayed in a Berkhard Potter Tower, left to dry for 1 hour and then placed on the top of pots containing twenty 1st instar Heliothis virescens/Spodoptera littoralis larvae. These were stored in a test holding room at 25° C. for 3 days and the test species assessed for mortality. For aphid testing Leaf discs were cut from excised Chinese cabbage leaves and placed on agar in test pots. R2 Myzus persicae were transferred from the culture on radish cotyledons and left overnight. The dried cotyledons were removed, leaving approximately 20-25 aphids on each leaf disc. The pots were sprayed in a Berkhard Potter Tower. Once dry, ventilated lids were placed on the top. These were stored in a Weiss Room at 20° C. for 3 days and the test species assessed for mortality. All tests included a Synperonic NP8 control. […] Any increase in the expected amount of mortality may be attributed to synergism. This is calculated in the following way: Expected mortality from mixture=% mortality of mixture partner A+(100%−% mortality of A)*(% mortality of mixture partner B). The results are set out in Tables I-III.

Heliothis virescens = assay: as above
Procedure: as §1

spinosad
Observed % mortality Other ai (Spodoptera littoralis; other ai alone 0.125 ppm): 0%
Observed % mortality Other ai (Spodoptera littoralis; other ai alone 0.25 ppm): 0%
Observed % mortality Other ai (Spodoptera littoralis; other ai alone 0.5 ppm): 29%
Observed % mortality Other ai (Heliothis virescens; other ai alone 0.06 ppm): 44%
Observed % mortality Other ai (Heliothis virescens; other ai alone 0.0625 ppm): 44%
Observed % mortality Other ai (Heliothis virescens; other ai alone 0.13 ppm): 33%
Observed % mortality Other ai (Heliothis virescens; other ai alone 0.25 ppm): 42%
